Experimental data taken from patent US20210115124A1 (Genentech, published 2021).
Numbering of substitutions follows the chain as printed. Names may count otherwise.

Protein sequences, listed by entry. Tags and fused reporters are not part of them. Chains listed by the source or under a name are the forms on record and can include a tag or linker.
UniProt P15692, other isoform, or with tags, fused parts or gaps limits assumed: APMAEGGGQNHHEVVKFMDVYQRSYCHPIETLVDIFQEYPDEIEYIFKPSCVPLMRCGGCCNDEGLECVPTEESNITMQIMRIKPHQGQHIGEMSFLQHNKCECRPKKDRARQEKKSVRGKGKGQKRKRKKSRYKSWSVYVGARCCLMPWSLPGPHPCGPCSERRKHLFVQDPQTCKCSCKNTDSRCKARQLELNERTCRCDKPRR

B1: G6.31 WT (Fab, V domains shown)
VH: EVQLVESGGGLVQPGGSLRLSCAASGFTISDYWIHWVRQAPGKGLEWVAGITPAGGYTYYADSVKGRFTISADTSKNTAYLQMNSLRAEDTAVYYCARFVFFLPYAMDYWGQGTLVTVSS
VL: DIQMTQSPSSLSASVGDRVTITCRASQDVSTAVAWYQQKPGKAPKLLIYSASFLYSGVPSRFSGSGSGTDFTLTISSLQPEDFATYYCQQGYGNPFTFGQGTKVEIK
notes: also called wild-type G6.31
B2: G6.31 AARR (Y58R.N94A.N82aR.F83A) (Fab, V domains shown)
VH: B1 VH with Y59R, N84R
VL: DIQMTQSPSSLSASVGDRVTITCRASQDVSTAVAWYQQKPGKAPKLLIYSASFLYSGVPSRFSGSGSGTDFTLTISSLQPEDAATYYCQQGYGAPFTFGQGTKVEIKR
notes: Fab; also called N94A.F83A.N82aR.Y58R
B3: G6.31 LC-G16K (Fab, V domains shown)
VH: B1 VH
VL: B1 VL with G16K
notes: Fab
B4: G6.31 LC-S9Q (Fab, V domains shown)
VH: B1 VH
VL: B1 VL with S9Q
notes: Fab
B5: G6.31 HC-Q13M (Fab, name in Kabat numbering, V domains shown)
VH: B1 VH with Q13M
VL: B1 VL
notes: Fab
B6: G6.31 LC-T22D (Fab, V domains shown)
VH: B1 VH
VL: B1 VL with T22D
notes: Fab
B7: G6.31 LC-Q3A (Fab, V domains shown)
VH: B1 VH
VL: B1 VL with Q3A
notes: Fab
B8: G6.31 HC-S7L (Fab, name in Kabat numbering, V domains shown)
VH: B1 VH with S7L
VL: B1 VL
notes: Fab
B9: G6.31 LC-M4Q (Fab, V domains shown)
VH: B1 VH
VL: B1 VL with M4Q
notes: Fab
B10: G6.31 LC-S12M (Fab, V domains shown)
VH: B1 VH
VL: B1 VL with S12M
notes: Fab
B11: G6.31 LC-S7Q (Fab, V domains shown)
VH: B1 VH
VL: B1 VL with S7Q
notes: Fab
B12: G6.31 HC-S5E (Fab, V domains shown)
VH: B1 VH with V5E
VL: B1 VL
B13: G6.31 HC-S7E (Fab, name in Kabat numbering, V domains shown)
VH: B1 VH with S7E
VL: B1 VL
notes: Fab
B14: G6.31 LC-S9E (Fab, V domains shown)
VH: B1 VH
VL: B1 VL with S9E
notes: Fab
B15: G6.31 LC-S10E (Fab, V domains shown)
VH: B1 VH
VL: B1 VL with S10E
notes: Fab
B16: G6.31 LC-S12E (Fab, V domains shown)
VH: B1 VH
VL: B1 VL with S12E
notes: Fab
B17: G6.31 HC-G16E (Fab, name in Kabat numbering, V domains shown)
VH: B1 VH with G16E
VL: B1 VL
notes: Fab
B18: G6.31 LC-S7E (Fab, V domains shown)
VH: B1 VH
VL: B1 VL with S7E
notes: Fab
B19: G6.31 HC-G8E (Fab, name in Kabat numbering, V domains shown)
VH: B1 VH with G8E
VL: B1 VL
notes: Fab
B20: G6.31 HC-V2E (Fab, name in Kabat numbering, V domains shown)
VH: B1 VH with V2E
VL: B1 VL
notes: Fab
B21: G6.31 HC-Q105E (Fab, name in Kabat numbering, V domains shown)
VH: B1 VH with Q112E
VL: B1 VL
notes: Fab
B22: G6.31 LC-T20E (Fab, V domains shown)
VH: B1 VH
VL: B1 VL with T20E
notes: Fab
B23: G6.31 HC-T107E (Fab, name in Kabat numbering, V domains shown)
VH: B1 VH with T114E
VL: B1 VL
notes: Fab
B24: G6.31 LC-A13R (Fab, V domains shown)
VH: B1 VH
VL: B1 VL with A13R
notes: Fab
B25: G6.31 HC-L11E (Fab, name in Kabat numbering, V domains shown)
VH: B1 VH with L11E
VL: B1 VL
notes: Fab
B26: G6.31 HC-L11R (Fab, name in Kabat numbering, V domains shown)
VH: B1 VH with L11R
VL: B1 VL
notes: Fab
B27: G6.31 LC-A13E (Fab, V domains shown)
VH: B1 VH
VL: B1 VL with A13E
notes: Fab

Each binder was assayed against T1, human VEGF (hVEGF) (human, UniProt P15692 181-395) (assay: SPR).
T1 construct: also called VEGF-A

| Kd | koff | kon | Fold improved (relative to WT) | Binder |
| --- | --- | --- | --- | --- |
| 0.525 nM | 0.000395 s⁻¹ | 754000 M⁻¹ s⁻¹ |  | B1 |
| 0.08 nM | 0.00032 s⁻¹ | 4e+06 M⁻¹ s⁻¹ | 6.6 fold | B2 |

Target: T1, human VEGF (hVEGF)
Test: SPR
Remark: another data set of the same source

| Kd | koff | kon | Binder |
| --- | --- | --- | --- |
| 0.599 nM | 0.000599 s⁻¹ | 999000 M⁻¹ s⁻¹ | B1 |

Target: T1, human VEGF (hVEGF)
Test: SPR
Remark: another data set of the same source

| Kd | koff | kon | Binder |
| --- | --- | --- | --- |
| 0.525 nM | 0.000395 s⁻¹ | 754000 M⁻¹ s⁻¹ | B1 |
| 0.135 nM | 0.000301 s⁻¹ | 2.22e+06 M⁻¹ s⁻¹ | B2 |

Each binder was assayed against T1, human VEGF (hVEGF) (assay: SPR single-cycle;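 as to Fold change (relative to G6.31): fab variants injected over hVEGF immobilized on a CM5 chip (Biacore T200), threefold dilution series from 0.02 to 50 nM, kinetics fitted with a 1:1 Langmuir model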).

| Kd | koff | kon | Fold difference (relative to G6.31) | Binder |
| --- | --- | --- | --- | --- |
| 1.54 nM | 0.000686 s⁻¹ | 445000 M⁻¹ s⁻¹ |  | B1 |
| 0.97 nM | 0.000356 s⁻¹ | 367000 M⁻¹ s⁻¹ | 1.6 fold | B3 |
| 0.44 nM | 0.000655 s⁻¹ | 1.47e+06 M⁻¹ s⁻¹ | 3.5 fold | B4 |
| 0.41 nM | 0.000519 s⁻¹ | 1.26e+06 M⁻¹ s⁻¹ | 3.8 fold | B5 |
| 0.72 nM | 0.000348 s⁻¹ | 487000 M⁻¹ s⁻¹ | 2.1 fold | B6 |
| 0.92 nM | 0.000359 s⁻¹ | 389000 M⁻¹ s⁻¹ | 1.7 fold | B7 |
| 0.77 nM | 0.000568 s⁻¹ | 736000 M⁻¹ s⁻¹ | 2 fold | B8 |
| 1.11 nM | 0.000657 s⁻¹ | 593000 M⁻¹ s⁻¹ | 1.4 fold | B9 |
| 0.76 nM | 0.000679 s⁻¹ | 894000 M⁻¹ s⁻¹ | 2 fold | B10 |
| 0.92 nM | 0.000671 s⁻¹ | 731000 M⁻¹ s⁻¹ | 1.7 fold | B11 |

Target: T1, human VEGF (hVEGF)
Test: SPR single-cycle
Remark: another data set of the same source

| Kd | koff | kon | Fold change (relative to G6.31) | Binder |
| --- | --- | --- | --- | --- |
| 1.7 nM | 0.000513 s⁻¹ | 301000 M⁻¹ s⁻¹ |  | B1 |
| 0.576 nM | 0.000454 s⁻¹ | 788000 M⁻¹ s⁻¹ | 3 fold | B12 |
| 1.43 nM | 0.000446 s⁻¹ | 311000 M⁻¹ s⁻¹ | 1.2 fold | B3 |
| 0.501 nM | 0.000381 s⁻¹ | 761000 M⁻¹ s⁻¹ | 3.4 fold | B13 |
| 0.368 nM | 0.000457 s⁻¹ | 1.24e+06 M⁻¹ s⁻¹ | 4.6 fold | B14 |
| 1.63 nM | 0.000429 s⁻¹ | 263000 M⁻¹ s⁻¹ | 1 fold | B15 |
| 2.27 nM | 0.000458 s⁻¹ | 201000 M⁻¹ s⁻¹ | 0.7 fold | B16 |
| 0.622 nM | 0.000454 s⁻¹ | 730000 M⁻¹ s⁻¹ | 2.7 fold | B17 |
| 1.24 nM | 0.000443 s⁻¹ | 356000 M⁻¹ s⁻¹ | 1.4 fold | B18 |
| 0.693 nM | 0.000455 s⁻¹ | 657000 M⁻¹ s⁻¹ | 2.5 fold | B19 |
| 1.32 nM | 0.000395 s⁻¹ | 300000 M⁻¹ s⁻¹ | 1.3 fold | B20 |
| 4.24 nM | 0.000463 s⁻¹ | 109000 M⁻¹ s⁻¹ | 0.4 fold | B21 |
| 1.86 nM | 0.000457 s⁻¹ | 246000 M⁻¹ s⁻¹ | 0.9 fold | B22 |
| 1.43 nM | 0.000594 s⁻¹ | 416000 M⁻¹ s⁻¹ | 1.2 fold | B23 |
| 1.41 nM | 0.000458 s⁻¹ | 325000 M⁻¹ s⁻¹ | 1.2 fold | B24 |
| 0.901 nM | 0.000507 s⁻¹ | 563000 M⁻¹ s⁻¹ | 1.9 fold | B25 |
| 0.488 nM | 0.000435 s⁻¹ | 890000 M⁻¹ s⁻¹ | 3.5 fold | B26 |
| 0.817 nM | 0.000394 s⁻¹ | 483000 M⁻¹ s⁻¹ | 2.1 fold | B27 |

The binders below were run against T1, human VEGF (hVEGF) (assay: SPR multiple-cycle).

| Kd | koff | kon | Binder |
| --- | --- | --- | --- |
| 0.525 nM | 0.000395 s⁻¹ | 754000 M⁻¹ s⁻¹ | B1 |

What follows are binders tested against VEGF (as used in the HUVEC migration assay) (Homo sapiens (Human), UniProt P15692 181-395) (assay: cell-based or functional assay).

| IC50 relative to G6.31, VEGF-induced HUVEC migration | Binder |
| --- | --- |
| 1 fold | B1 |
| 0.5 fold | B2 |

Each binder was assayed against T1, human VEGF (hVEGF) (assay: BIACORE SPR on immobilised hVEGF; label beside the mutation on the structure of the VEGF-bound G6 Fab (PDB 2FJG)).

| fold change in binding affinity (Kd) compared to G6.31 | Binder |
| --- | --- |
| 2 x | B8 |

Target: T1, human VEGF (hVEGF)
Test: as above
Remark: another data set of the same source

| fold change in binding affinity (Kd) compared to G6.31 | Binder |
| --- | --- |
| 4 x | B4 |
| 1 x | B9 |
| 2 x | B10 |
